Patent publication US4223137A, “Carbostyril derivatives and process for preparing the same” (Otsuka Pharmaceutical Co., Ltd., priority 1976, dated 1980)

By UniProt entry, the sequences of proteins in these tests, tags left out.
UniProt P54833, whole entry: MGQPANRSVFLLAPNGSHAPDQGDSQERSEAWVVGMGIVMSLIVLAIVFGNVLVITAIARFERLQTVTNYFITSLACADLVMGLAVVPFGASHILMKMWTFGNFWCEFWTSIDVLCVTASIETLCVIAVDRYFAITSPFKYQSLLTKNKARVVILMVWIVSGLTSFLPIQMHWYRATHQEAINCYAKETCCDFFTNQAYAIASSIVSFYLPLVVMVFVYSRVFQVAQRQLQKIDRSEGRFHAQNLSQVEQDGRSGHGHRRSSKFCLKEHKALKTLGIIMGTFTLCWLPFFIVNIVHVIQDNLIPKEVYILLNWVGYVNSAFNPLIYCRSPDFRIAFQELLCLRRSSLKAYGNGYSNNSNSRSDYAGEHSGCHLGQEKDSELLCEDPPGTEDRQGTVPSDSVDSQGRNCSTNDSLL

Legend:
β2-receptor = assay: Separation of bronchial resistance effect from heart rate effect (β2 selectivity), anesthetized dogs; assay type: in vivo, dog (male hybrid adult dogs); details: i.v.
Method: (§1) The stimulating activity of the compounds of this invention on β-adrenoreceptor was determined as follows: Male hydrid adult dogs, weighing 10 to 15 kg, were anesthesized with sodium pentobartital administered intravenously at a level of 30 mg/kg of body weight. Each of the anesthesized dogs was secured on its back and a cannula was inserted into the trachea. Artificial respiration was conducted using a device according to the Konzett-Rossler method (Konzett H. & Rossler R., "Versuchsanordnug zu Untersuchungen an der Bronchial Moskolatur", Arch. Exp. Path., Pharmack, 195, 71-74, 27-40 (1940). The volume of the air which overflowed at the time of inhalation was measured through a pneumotachometer to determine the bronchial resistance and the values obtained were recorded on a polygraph.
(§2) In the above procedure, histamine was employed as a bronchoconstrictor at a dosage level of 10 μg/kg of body weight, and an aqueous solution containing each of the test compounds and controls shown in Table 1 below was then administered to each of the anesthesized dogs through the femoral vein at the various dosage levels as shown in Table 1 below 1 minute before the administration of the histamine. […]
(§3) ED50 values were calculated using a Dose Response curve. At the same time the pulse was measured through a transducer and the value was recorded on a polygraph.

β-adrenoreceptor [1] = assay: Heart rate (pulse) increase, i.v., anesthetized dogs; design: species or system dog (male hybrid adult dogs); details: dog, in vivo
Method: The stimulating activity of the compounds of this invention on β-adrenoreceptor was determined as follows: Male hydrid adult dogs, weighing 10 to 15 kg, were anesthesized with sodium pentobartital administered intravenously at a level of 30 mg/kg of body weight. Each of the anesthesized dogs was secured on its back and a cannula was inserted into the trachea.
In the above procedure, histamine was employed as a bronchoconstrictor at a dosage level of 10 μg/kg of body weight, and an aqueous solution containing each of the test compounds and controls shown in Table 1 below was then administered to each of the anesthesized dogs through the femoral vein at the various dosage levels as shown in Table 1 below 1 minute before the administration of the histamine. Sodium pentobartital was infused during the procedure at a dosage level of 4 mg/kg of body weight/hr using an automatic injector in order to inhibit spontaneous respiration and to maintain the anesthetic condition constant over the test period.
as §3

β-adrenoreceptor [2] = biological target: T1, β-adrenoreceptor (Canis lupus familiaris, UniProt P54833); assay: Inhibition of histamine-induced bronchial resistance increase (bronchospasm), i.v., Konzett-Rossler method, anesthetized dogs; assay type: in vivo, dog (male hybrid adult dogs); details: ED50 compared to isoproterenol as standard compound
T1 construct: from tissue; host or cells: airways of anesthetized dogs, in vivo
Method: as §1, §2, §3

With CCC(NC(C)C)C(O)c1ccc(OC(=O)Cc2ccccc2)c2[nH]c(=O)ccc12.Cl (stereo not drawn) [(7), 8-phenylacetoxy-5-(1-hydroxy-2-isopropylaminobutyl)carbostyril hydrochloride] the “Separation Ratio HR(Relative Potency)/BR(Relative Potency)” value (β2-receptor) was 11.2, the “Heart Rate (HR) Relative Potency” value (β-adrenoreceptor [1]) was 12.6 and the “Bronchial Resistance (BR) Relative Potency” value (β-adrenoreceptor [2]) was 1.13.
